Measurements published in PubChem BioAssay AID2380 (Sanford-Burnham Center for Chemical Genomics, 2010).
This is a selection; strong and weak results do not stand in their true shares. Activity calls are given as the source filed them.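 The calls were made as follows: active = compounds whose signal lies at least 3.5 SD above the mean of all wells on their plate; inactive = the rest.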

Assay: small molecules increasing insulinoma cell replication – ATP luminescence, uHTS, primary screen (AID 2380);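 also: 0% = DMSO-treated cells in low-serum medium and 100% = 10% serum control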
Conditions: MIN6 cells proliferation, ATPlite luminescence, 48 h; at 10 µM; stronger effect = higher value; 100% = growth in 10% serum; cells starved in 0.2% serum

Compound | proliferation
C[C@H]1OP(=O)(Oc2ccccc2)[C@H](O)[C@H](O)[C@H]1N=[N+]=[N-] (stereo partly specified) | inactive: 4.54%
